# Experimental data taken from patent publication US20130109735A1 (SIMON FRASER UNIVERSITY, priority 2009, published 2013).
# Chains of the proteins cited; added tags and fusions are not shown. Residues count along the entry.
# UniProt O43451, 356-737 limits assumed: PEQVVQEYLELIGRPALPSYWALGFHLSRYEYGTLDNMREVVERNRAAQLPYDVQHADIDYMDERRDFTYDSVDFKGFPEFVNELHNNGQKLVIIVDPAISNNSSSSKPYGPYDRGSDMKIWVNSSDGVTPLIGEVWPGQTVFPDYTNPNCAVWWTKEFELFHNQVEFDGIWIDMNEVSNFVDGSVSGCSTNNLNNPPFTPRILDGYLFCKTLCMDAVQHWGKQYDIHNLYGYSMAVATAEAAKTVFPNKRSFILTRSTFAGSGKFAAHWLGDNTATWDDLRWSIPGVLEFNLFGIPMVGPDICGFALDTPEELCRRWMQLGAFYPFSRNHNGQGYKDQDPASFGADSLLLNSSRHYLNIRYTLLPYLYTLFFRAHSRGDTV
# Where a name gives a salt, the structure may show the parent alone. Read-outs that look alike come from different tables or passages of the source.
# Target: T1, recombinant N-terminal domain of Maltase-Glucoamylase (ntMGAM) (Homo sapiens, UniProt O43451)
# T1 construct: recombinant N-terminal domain of Maltase-Glucoamylase (ntMGAM)
# Assay: MGA inhibition, glucose oxidase assay with maltose as the substrate (Table 1)
# Type: biochemical
# Description: Activity of recombinant N-terminal domain of Maltase-Glucoamylase (ntMGAM) was determined using the glucose oxidase assay^22 to follow the production of glucose from maltose upon addition of the enzyme (0.8 nM). A no-inhibitor control and five different inhibitor concentrations were used in combination with 7 different maltose concentrations (ranging from 1.5 to 24 mM). A reaction time of 60 minutes at 37° C. was employed. […] Values of Ki and standard deviations were determined by the program GraFit 4.0.14 (Erithacus Software)^22 which employs nonlinear fitting of the data for each inhibitor concentration to the Michaelis-Menten equation.
"Ki (MGA, maltose as the substrate, read-out: Ki) [µM]",SMILES,Ki [µM]
–,O=S(=O)([O-])O[C@@H]([C@H](O)[C@H](O)[C@@H](O)CO)[C@H](O)C[Se@+]1C[C@@H](O)[C@H](O)[C@H]1CO (racemic) [Compound 34],0.08
7.2 ± 0.7,"O=S(=O)([O-])OC(C(O)C[Se+]1CC(O)C(O)C1CO)C(O)C(O)C(O)CO (racemic) [Compound 46, 1,4-Dideoxy-1,4-[[2S,3S,4R,5R,6S]-2,4,5,6,7-pentahydroxy-3-(sulfooxy)heptyl]-(R/S)-epi-selenoniumylidine]-D-arabinitol Inner Salt]",–
